The list shows a part of the results, in another mix than the full data. Some results for these compounds are left out of this collection, so the calls shown say nothing about other tests. Activity calls are given as the source filed them. Calls follow the shape of the dose curve; as a rule, active = well fitted inhibition curve with a large enough effect; inconclusive = small, poorly fitted or top-dose-only effect; inactive = no such curve, though single readings can be large or run the other way.
biological target: Breast cancer type 1 susceptibility protein (Homo sapiens) (UniProt P38398); test: qHTS Assay for Inhibitors of BRCT-Phosphoprotein Interaction (Red Fluorophore); conditions: BRCT-phosphopeptide binding, red fluorescence polarization; at 15.4 µM (top of the series) unless noted
Method: NIH Molecular Libraries Screening Centers Network [MLSCN]
NIH Chemical Genomics Center [NCGC]
PI Name: Natarajan, Amarnath; University of Texas
A complex of BRCT (C-terminal portion of BRCA1, MW ~35 kDa, His-tagged) and fluorescently labeled pBACH1 phosphorylated 10 aa peptide fragment of BACH1, a helicase implicated in DNA repair, is incubated with library members. Inhibitors of BRCT-pBACH1 binding are detected by a decrease in the fluorescence polarization (FP) of the fluorophore. In order to minimize the effect of fluorescence artifacts and to increase the overall robustness of the screen, the compound library members were incubated in separate reactions with rhodamine-labeled probe-protein complexes. Protein and labeled probes were supplied by Dr. Amarnath Natarajan, Department of Pharmacology and Toxicology, University of Texas Medical Branch Galveston, TX.
Assay Buffer: 16mM Na2HPO4, 4 mM NaH2PO4, 150 mM NaCl, 1 mM EDTA, 1 mM DTT, 0.02% NaN3, and 0.01% Tween 20 at pH 7.3.
Assay Controls: 100 nM TAMRA labeled decapeptide dispensed into columns 3 and 4 to generate negative control (full inhibition of
binding, -100 % activity). 100 nM labeled decapeptide/100 nM protein in columns 1, 2, 5 - 48. Titration of unlabeled decapeptide control (from 10 mM, then 1:2 dilution in duplicate) pin-transferred to column 2, rows 1 to 16. Column 1 is neutral.
Three uL of reagents were dispensed to 1536-well Greiner black solid-bottom plates. Compounds and controls (23 nL) were transferred via Kalypsys PinTool. The plates were incubated for 12 min at room temperature, and then read on ViewLux (Perkin-Elmer) High-throughput CCD imager using BODIPY for the rhodamine-labeled decapeptide probe polarization filter sets. During dispense, reagent bottles were kept submerged into 4 deg C water bath and all liquid lines were covered with aluminum foil to minimize probe and protein degradation. All screening operations were performed on a Kalypsys robotic system (Kalypsys, Inc., San Diego, CA) containing one RX-130 and two RX-90 anthropomorphic robotic arms. The timing and order of assay plates passing through the screening system were adjusted such that each compound library plate was assayed against the fluorescein- and rhodamine-labeled assay systems at immediately adjacent time points.
% is scaled to controls: 0 for no effect and ±100 for the full control effect.

Sequences of proteins named here, by UniProt entry; tags and fusion partners are left off.
UniProt P38398, whole entry: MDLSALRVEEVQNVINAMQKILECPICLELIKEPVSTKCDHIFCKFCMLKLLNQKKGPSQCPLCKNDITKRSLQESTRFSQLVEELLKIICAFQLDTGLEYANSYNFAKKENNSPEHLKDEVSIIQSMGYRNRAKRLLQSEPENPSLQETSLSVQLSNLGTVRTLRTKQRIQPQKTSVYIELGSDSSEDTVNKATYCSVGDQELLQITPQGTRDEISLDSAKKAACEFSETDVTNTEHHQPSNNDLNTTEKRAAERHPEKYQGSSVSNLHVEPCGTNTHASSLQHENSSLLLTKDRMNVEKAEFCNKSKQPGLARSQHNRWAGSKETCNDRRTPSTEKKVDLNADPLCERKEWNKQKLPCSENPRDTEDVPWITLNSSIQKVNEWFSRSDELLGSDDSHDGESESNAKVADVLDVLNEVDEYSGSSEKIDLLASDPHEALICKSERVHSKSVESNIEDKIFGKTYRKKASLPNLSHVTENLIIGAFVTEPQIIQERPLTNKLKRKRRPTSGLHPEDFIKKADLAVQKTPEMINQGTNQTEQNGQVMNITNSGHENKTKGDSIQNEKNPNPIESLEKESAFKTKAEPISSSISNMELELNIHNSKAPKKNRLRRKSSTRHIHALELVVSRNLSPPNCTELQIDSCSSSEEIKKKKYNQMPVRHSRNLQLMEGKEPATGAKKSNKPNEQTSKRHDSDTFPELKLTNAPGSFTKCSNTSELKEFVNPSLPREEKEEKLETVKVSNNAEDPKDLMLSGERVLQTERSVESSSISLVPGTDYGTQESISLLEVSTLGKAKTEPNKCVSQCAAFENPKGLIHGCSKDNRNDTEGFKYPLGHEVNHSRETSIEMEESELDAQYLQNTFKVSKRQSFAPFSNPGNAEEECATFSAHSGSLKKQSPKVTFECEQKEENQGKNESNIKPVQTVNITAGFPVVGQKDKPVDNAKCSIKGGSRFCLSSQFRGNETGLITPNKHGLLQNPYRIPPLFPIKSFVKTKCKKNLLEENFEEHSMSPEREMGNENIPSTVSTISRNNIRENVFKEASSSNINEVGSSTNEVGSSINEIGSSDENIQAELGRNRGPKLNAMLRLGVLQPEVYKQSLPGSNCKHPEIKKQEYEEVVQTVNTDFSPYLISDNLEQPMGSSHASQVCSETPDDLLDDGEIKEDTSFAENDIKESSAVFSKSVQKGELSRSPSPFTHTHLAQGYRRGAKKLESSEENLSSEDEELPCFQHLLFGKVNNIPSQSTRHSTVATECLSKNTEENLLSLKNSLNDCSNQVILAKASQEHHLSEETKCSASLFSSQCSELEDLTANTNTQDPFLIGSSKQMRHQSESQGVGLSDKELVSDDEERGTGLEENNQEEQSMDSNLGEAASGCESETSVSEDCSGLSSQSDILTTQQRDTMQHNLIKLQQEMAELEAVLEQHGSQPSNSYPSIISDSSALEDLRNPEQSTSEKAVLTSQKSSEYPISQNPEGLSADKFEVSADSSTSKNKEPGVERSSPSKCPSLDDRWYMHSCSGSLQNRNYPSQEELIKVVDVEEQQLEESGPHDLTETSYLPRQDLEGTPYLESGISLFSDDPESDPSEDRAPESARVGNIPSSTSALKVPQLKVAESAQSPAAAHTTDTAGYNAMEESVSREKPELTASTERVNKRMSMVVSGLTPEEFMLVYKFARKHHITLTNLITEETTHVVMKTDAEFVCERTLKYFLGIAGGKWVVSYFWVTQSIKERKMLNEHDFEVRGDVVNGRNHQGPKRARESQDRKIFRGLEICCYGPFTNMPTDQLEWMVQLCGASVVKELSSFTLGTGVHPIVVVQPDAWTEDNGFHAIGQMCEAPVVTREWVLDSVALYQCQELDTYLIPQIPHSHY

| Structure (SMILES) | activity change, negative = inhibition |
| --- | --- |
| CN(C)c1cccc(C(=O)NCC2(N(C)C)CCCCC2)c1 | inactive: 0.128% [at 76.9 µM] |
| C=C(C)C#C[C@@](O)(C(=O)OC1CCN(C)CC1)c1ccccc1 | inactive: -0.362% |
| CN1CC[C@H](OC(=O)[C@](O)(c2ccccc2)C2CCCC2)C1 | inactive: -0.224% |
| O=C(OC1CN2CCC1CC2)C(CO)(c1ccccc1)c1ccccc1 (stereo not given) | inactive: 0.983% [at 76.9 µM] |
| CN1CCC[C@H](OC(=O)[C@](O)(c2ccccc2)C2CCCC2)C1 | inactive: 1.02% |
